Experimental melting point values from OPERA 2.9

Melting points are in °C. "n/a" marks a cell with nothing listed here. The databases behind each value are named after "via".

melting point (°C)	structure (SMILES)	name	via
140	Cc1c(C(=O)NN)oc2ccccc12	3-methyl-1-benzofuran-2-carbohydrazide	OCHEM
85	N=C(CCl)NO	Chloro-N-hydroxyethanimidamide	OCHEM
164	COC(=O)c1cc([N+](=O)[O-])ccc1N	methyl 2-amino-5-nitrobenzoate	OCHEM
210	O=C(O)c1ccc(NS(=O)(=O)c2ccccc2)cc1	4-Benzenesulfonylaminobenzoic acid	OCHEM
169	CCOC(=O)C1=C(COCCNC(=O)c2ccccc2C(=O)O)NC(C)=C(C(=O)OC)C1c1ccccc1Cl (configuration not stated)	n/a	eChemPortal
83	FC(F)(F)C(F)(F)C(F)(F)C(F)(F)C(F)(F)C(F)(F)C(F)(F)C(F)(F)CCc1ccc(P(c2ccccc2)c2ccccc2)cc1	n/a	ChemicalBook
144	O=C(O)C1(c2cccc(Br)c2)CC1	1-(3-Bromophenyl)cyclopropane-1-carboxylic acid	OCHEM
246	Cc1ccccc1-n1cc[nH]c1=S	1-(2-methylphenyl)-1H-imidazole-2-thiol	OCHEM
315	O=C(O)c1ccc(-n2ncc(Cl)c(Cl)c2=O)cc1	4-(4,5-dichloro-6-oxopyridazin-1(6H)-yl)benzoic acid	OCHEM
155	O=C(O)c1ccc(SC(F)F)cc1	4-[(Difluoromethyl)sulfanyl]benzoic acid	OCHEM
73	N#Cc1cc(Cl)ccc1N=C=O	5-chloro-2-isocyanatobenzonitrile	OCHEM
230	Cc1ccc2c(c1C)NC(=O)C2=O	6,7-dimethyl-1H-indole-2,3-dione	OCHEM
240	Nc1ncnc2sc3c(c12)CCCC3	5,6,7,8-Tetrahydro[1]benzothieno[2,3-d]pyrimidin-4-amine	OCHEM
160	CS(=O)(=O)N1CCC(C(=O)O)CC1	1-(methylsulfonyl)piperidine-4-carboxylic acid	OCHEM
168	Nc1ccc(N2CCNC(=O)C2)cc1	4-(4-Aminophenyl)piperazin-2-one	OCHEM
171	Nc1nnc(C2CC2)o1	5-Cyclopropyl-1,3,4-oxadiazol-2-amine	OCHEM
127.5	O=C(O)c1ccccc1CO	2-(Hydroxymethyl)benzoic acid	PubChem
52.5	FC(F)(F)C(F)(F)C(F)(F)C(F)(F)C(F)(F)C(F)(F)c1ccc(-c2cccs2)s1	5-(Tridecafluorohexyl)-2,2'-bithiophene	ChemicalBook
-81.4	CCCCO[Si](C)(C)OCCCC	Dibutoxy(dimethyl)silane	eChemPortal
230	Cc1ccc(-c2nn(-c3ccccc3)cc2C(=O)O)cc1	3-(4-Methylphenyl)-1-phenyl-1H-pyrazole-4-carboxylic acid	OCHEM
-13.7	CC(=O)/C=C/C1C(C)=CCCC1(C)C (stereo partly drawn)	alpha-Ionone	OCHEM, eChemPortal
60	CN(C)c1ccc(CNC(=O)CCl)cc1	2-chloro-N-[4-(dimethylamino)benzyl]acetamide	OCHEM
115	CCCn1c(N)nc2ccccc21	1-Propyl-1H-benzoimidazol-2-ylamine	OCHEM
76	CC(=O)CC(=O)Nc1ccccc1F	n-(2-fluorophenyl)-3-oxobutanamide	OCHEM
250	Cc1cc(C)c2c(=O)[nH][nH]c2n1	4,6-Dimethyl-1,2-dihydro-3H-pyrazolo[3,4-b]pyridin-3-one	OCHEM
115	O=C1NC(=O)N2CCCCC12 (configuration not stated)	tetrahydroimidazo[1,5-a]pyridine-1,3(2H,5H)-dione	OCHEM
43	OCCC(F)(F)C(F)(F)C(F)(F)C(F)(F)C(F)(F)C(F)(F)C(F)(F)C(F)(F)C(F)(F)F	9:2 Fluorotelomer alcohol	ChemicalBook
110	Cc1noc(C)c1CCC(=O)O	3-(3,5-dimethylisoxazol-4-yl)propanoic acid	OCHEM
60.5	Nc1ncccc1Cl	2-Amino-3-chloropyridine	OCHEM
110	NNC(=O)COc1ccccc1F	2-(2-fluorophenoxy)acetohydrazide	OCHEM
60	O=C(O)C1COCCO1 (configuration not stated)	1,4-dioxane-2-carboxylic Acid	OCHEM
29.5	c1cnc2c(n1)CCCC2	5,6,7,8-Tetrahydroquinoxaline	PubChem
157	Clc1nnc(-c2ccccc2)c2ccccc12	1-chloro-4-phenylphthalazine	OCHEM
133	COc1ccc(CC(=O)NN)cc1	2-(4-Methoxyphenyl)acetohydrazide	OCHEM
53	CCOc1cc(C=O)cc(Br)c1OC	3-bromo-5-ethoxy-4-methoxybenzaldehyde	OCHEM
45.9	CCCCCCCCCCCCCCCCCC(=O)OCCCCCCCCCCCCCC	Myristyl stearate	eChemPortal
65	OCc1cnn(-c2ccccc2)c1	(1-phenyl-1H-pyrazol-4-yl)methanol	OCHEM
46	O=Cc1ccc(OCc2cccc(F)c2)cc1	4-[(3-Fluorophenyl)methoxy]benzaldehyde	OCHEM
106	Cc1ccccc1CNC(=O)CCl	2-chloro-N-(2-methylbenzyl)acetamide	OCHEM
166.5	NNc1cc(N2CCOCC2)ncn1	4-(6-Hydrazinylpyrimidin-4-yl)morpholine	eChemPortal
175	Nc1cccc(-c2csc(N)n2)c1	4-(3-Amino-phenyl)-thiazol-2-ylamine	OCHEM
137	Cc1ccc2nc(CCl)cc(=O)n2c1	2-(Chloromethyl)-7-methyl-4H-pyrido[1,2-a]pyrimidin-4-one	OCHEM
218	COc1ccc(S(N)(=O)=O)cc1NC(C)=O	N-(2-methoxy-5-sulfamoylphenyl)acetamide	OCHEM
170	Cc1nc(C(C)C)sc1C(=O)O	4-Methyl-2-(propan-2-yl)-1,3-thiazole-5-carboxylic acid	OCHEM
194	Nc1ccc2sc(N)nc2n1	Thiazolo[4,5-b]pyridine-2,5-diamine	OCHEM
117	O=C(O)CCOc1ccc([N+](=O)[O-])cc1	3-(4-Nitrophenoxy)propanoic acid	OCHEM
79	NC1CCN(C(=O)C2CCCCC2)CC1	(4-Aminopiperidin-1-yl)(cyclohexyl)methanone	OCHEM
138.5	BrC1C2CC3CC(C2)CC1C3 (configuration not stated)	2-Bromoadamantane	OCHEM
56	CCc1cc2c(Cl)ncnc2s1	4-chloro-6-ethylthieno[2,3-d]pyrimidine	OCHEM
61	Cc1ccc(C(N)=S)c(C)c1	2,4-dimethylbenzenecarbothioamide	OCHEM
212	Cc1cccc(N2CC(C(=O)O)CC2=O)c1C (configuration not stated)	1-(2,3-dimethylphenyl)-5-oxopyrrolidine-3-carboxylic acid	OCHEM
155	Cc1ccc(C(=O)Nc2ccccc2N)cc1	N-(2-aminophenyl)-4-methylbenzamide	OCHEM
220	COc1cc2c(cc1OC)C(c1ccccc1)N(C(=O)CCl)CC2 (configuration not stated)	n/a	OCHEM

6 of these entries, quoted again:

{"smiles": "Cc1ccc2c(c1C)NC(=O)C2=O", "name": "6,7-dimethyl-1H-indole-2,3-dione", "melting point (°C)": "230", "via": "OCHEM"}
{"smiles": "Cc1c(C(=O)NN)oc2ccccc12", "name": "3-methyl-1-benzofuran-2-carbohydrazide", "melting point (°C)": "140", "via": "OCHEM"}
{"smiles": "Cc1cc(C)c2c(=O)[nH][nH]c2n1", "name": "4,6-Dimethyl-1,2-dihydro-3H-pyrazolo[3,4-b]pyridin-3-one", "melting point (°C)": "250", "via": "OCHEM"}
{"smiles": "Cc1ccccc1-n1cc[nH]c1=S", "name": "1-(2-methylphenyl)-1H-imidazole-2-thiol", "melting point (°C)": "246", "via": "OCHEM"}
{"smiles": "COc1ccc(CC(=O)NN)cc1", "name": "2-(4-Methoxyphenyl)acetohydrazide", "melting point (°C)": "133", "via": "OCHEM"}
{"smiles": "Cc1ccc(C(=O)Nc2ccccc2N)cc1", "name": "N-(2-aminophenyl)-4-methylbenzamide", "melting point (°C)": "155", "via": "OCHEM"}

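The numbers are reported measurements, compiled and curated for the OPERA QSAR suite. The files give a single number for a compound and property, which may rest on several reports. How each value was measured is not recorded, so precision varies. A value may pool stereoisomers or salt forms, and the file does not say which form was measured. Unmarked limits or estimates from the upstream databases cannot be ruled out.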

Data: OPERA 2.9 data sets, kmansouri/OPERA on GitHub.